In patent US20140135396A1, “Treatment of Acetaminophen-Induced Liver Damage by the Administration of Modulators of Nitric Oxide” (BETH ISRAEL DEACONESS MEDICAL CENTER, INC., priority 2011, published 2014):

System: lfabp:GFP embryos
Assay: APAP-induced liver injury in zebrafish larvae, sub-lethal dose (liver size, BrdU)
Type: in vivo
Conditions: APAP 5 mM 48-60 hpf, treatment in recovery phase 60-96 hpf; L-NAME 10 μM, NAC 10 μM, GSNORi 1 μM

CC(=O)N[C@@H](CS)C(=O)O [NAC, N-acetylcysteine]
liver size: enhance liver size
